Columns and labels:
Rhodesain = Rhodesain (Trypanosoma brucei rhodesiense, UniProt Q95PM0); experiment: Inhibition of Trypanosoma brucei rhodesiense rhodesain
Procathepsin L = Procathepsin L (Homo sapiens, UniProt P07711); experiment: Inhibition of human liver cathepsin L

The chains behind the UniProt entries cited, without tags or fusion partners. Where a name states a change or a piece, a line headed by the entry shows the natural chain unless it says otherwise.
UniProt Q95PM0, whole entry: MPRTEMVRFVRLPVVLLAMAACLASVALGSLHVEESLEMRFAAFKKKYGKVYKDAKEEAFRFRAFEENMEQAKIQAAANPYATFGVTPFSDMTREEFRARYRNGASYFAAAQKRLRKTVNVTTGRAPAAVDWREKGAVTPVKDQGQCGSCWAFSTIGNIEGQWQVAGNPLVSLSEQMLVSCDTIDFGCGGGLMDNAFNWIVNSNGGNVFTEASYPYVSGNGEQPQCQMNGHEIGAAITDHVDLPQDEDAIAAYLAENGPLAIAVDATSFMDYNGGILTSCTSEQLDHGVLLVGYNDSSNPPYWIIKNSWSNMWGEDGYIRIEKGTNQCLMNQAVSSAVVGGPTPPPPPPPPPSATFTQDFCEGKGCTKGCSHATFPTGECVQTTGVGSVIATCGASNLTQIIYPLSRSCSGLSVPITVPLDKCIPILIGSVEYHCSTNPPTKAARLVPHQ
UniProt P07711: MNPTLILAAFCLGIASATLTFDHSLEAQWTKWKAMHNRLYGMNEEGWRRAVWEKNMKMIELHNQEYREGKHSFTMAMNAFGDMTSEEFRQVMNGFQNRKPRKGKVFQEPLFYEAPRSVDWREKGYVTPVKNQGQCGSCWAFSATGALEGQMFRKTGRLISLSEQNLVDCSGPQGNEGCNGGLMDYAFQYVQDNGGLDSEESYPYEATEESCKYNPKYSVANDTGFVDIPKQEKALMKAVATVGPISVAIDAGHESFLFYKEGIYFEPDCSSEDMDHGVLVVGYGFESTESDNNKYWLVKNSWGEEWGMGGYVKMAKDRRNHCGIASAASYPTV

C=Cc1cccc(-c2cccc(CNc3nc(C#N)nc4c3ncn4CCCO)c2)c1 was tested. Which IC50 (Rhodesain) did it give?
Its IC50 is 1500 nM.

What about the IC50 (Procathepsin L) of the same molecule?
The IC50 was 1500 nM.

Reference: ChEMBL document CHEMBL1155239, “Structure-guided development of selective TbcatB inhibitors” (J Med Chem, 2009)
